Assay results as given in patent publication US4876260A, “Oxathiolanes” (State of Israel, Israel Institute of Biological Research, priority 1988, dated 1989).
“And” between values parts separate entries of the source, which are not always exact repeats. Equal values may be shown once.

The chains behind the UniProt entries cited, without tags or fusion partners. Where a name states a change or a piece, a line headed by the entry shows the natural chain unless it says otherwise.
UniProt P08482: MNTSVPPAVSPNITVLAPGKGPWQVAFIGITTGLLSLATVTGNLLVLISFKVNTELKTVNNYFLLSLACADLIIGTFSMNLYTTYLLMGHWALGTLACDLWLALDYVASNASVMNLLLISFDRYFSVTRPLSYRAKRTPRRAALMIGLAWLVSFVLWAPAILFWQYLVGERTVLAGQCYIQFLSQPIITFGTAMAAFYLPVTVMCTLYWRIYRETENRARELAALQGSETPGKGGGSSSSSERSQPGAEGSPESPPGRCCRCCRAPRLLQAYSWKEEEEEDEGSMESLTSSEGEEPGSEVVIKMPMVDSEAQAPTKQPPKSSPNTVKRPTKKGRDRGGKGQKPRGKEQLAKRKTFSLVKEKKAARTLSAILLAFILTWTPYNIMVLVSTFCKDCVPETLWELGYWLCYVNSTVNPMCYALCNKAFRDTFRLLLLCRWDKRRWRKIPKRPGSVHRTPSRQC
UniProt P10980, whole entry: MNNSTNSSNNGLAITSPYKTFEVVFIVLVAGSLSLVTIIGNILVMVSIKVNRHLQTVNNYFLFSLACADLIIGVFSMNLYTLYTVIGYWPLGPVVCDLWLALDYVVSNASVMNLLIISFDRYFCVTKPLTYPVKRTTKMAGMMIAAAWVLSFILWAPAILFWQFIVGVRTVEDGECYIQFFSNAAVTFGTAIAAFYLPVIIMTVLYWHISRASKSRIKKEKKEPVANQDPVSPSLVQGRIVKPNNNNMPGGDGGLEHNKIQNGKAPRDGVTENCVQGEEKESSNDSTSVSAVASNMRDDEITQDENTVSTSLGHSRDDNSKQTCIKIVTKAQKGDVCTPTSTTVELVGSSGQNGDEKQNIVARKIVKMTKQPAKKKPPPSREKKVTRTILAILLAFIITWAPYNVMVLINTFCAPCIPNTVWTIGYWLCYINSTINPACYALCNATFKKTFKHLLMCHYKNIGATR

Key:
[1] = biological target: muscarinic receptors (3H-QNB sites, M1 and M2, forebrain); assay type: binding, rat; conditions: for Ki: (b) forebrain
[2] = biological target: muscarinic receptors (3H-CD sites, M1 and M2, forebrain); test: Displacement of 3H-cis-dioxolane (3H-CD, non-selective M1 and M2 agonist) from rat forebrain homogenate; assay type: binding
[3] = biological target: M1 muscarinic receptors (3H-PZ sites, forebrain) (Rattus norvegicus, UniProt P08482); test: Displacement of 3H-Pirenzepine (3H-PZ, selective M1 antagonist) from rat forebrain homogenate; assay type: binding
[4] = biological target: muscarinic receptors (3H-QNB sites, frontal cortex); assay type: binding, rat; conditions: (b') frontal cortex
[5] = biological target: muscarinic receptors (3H-CD sites, frontal cortex); test: Displacement of 3H-CD from rat frontal cortex homogenate; assay type: binding; conditions: (c') frontal cortex
[6] = test system: muscarinic receptors (3H-QNB sites, cerebellum, mainly M2); test: biochemical; assay type: binding, rat; conditions: FB=forebrain; CER=cerebellum
[7] = biological target: muscarinic receptors (3H-QNB sites, cerebellum, mainly M2) (Rattus norvegicus, UniProt P10980); test: biochemical; assay type: binding; conditions: (b") cerebellum

Structure (SMILES) | Ki [1] [µM] | Ki ([2]; (c) forebrain) [µM] | M1 selectivity (in words) ([3]; from Tables 2A, 2B, 2C) | Ki [4] [µM] | Ki [5] [µM] | order of M1 versus M2 selectivity, IC50 (FB):IC50 (CER) or IC50 (frontal cortex):IC50 (CER) [6] | Ki [7] | Ki ([2]; Table 2B column (c'), footnote *forebrain) [µM] | order of the ratios Ki(3H-PZ):Ki(3H-CD) [3] | order of the ratios Ki(3H-PZ):Ki(3H-QNB) ([3]; forebrain, among oxotremorine, McN-A-343, compound #3) | times more potent in H-QNB displacement than its racemate (#4) [1] [times]
C[C@H]1O[C@]2(CS1)CN1CCC2CC1 (relative stereo) [compound 4, 2-methylspiro(1,3-oxathiolan-5,3')quinuclidine] | 7 ± 1 | 0.45 ± 0.18 | the most selective M1 agonist, being more selective than the prototype M1 agonist McN-A-343 | 7.1 ± 1.5 | 0.39 ± 0.21 | compound #4>compound #3>oxotremorine | 14.8 µM and 18.1 µM |  |  |  | 
C[C@H]1O[C@]2(CS1)CN1CCC2CC1 (single isomer, unassigned) [compound 6, 2-methylspiro(1,3-oxathiolan-5,3')quinuclidine] | 47.4 ± 13.7 | 7.5 |  |  |  |  | 99.2 ± 26.8 µM | 7.94 |  |  | 
C[C@@H]1O[C@]2(CS1)CN1CCC2CC1 (relative stereo) [compound 3, 2-methylspiro(1,3-oxathiolan-5,3')quinuclidine] | 24.7 ± 2.3 | 1.8 ± 0.1 |  |  |  | compound #4>compound #3>oxotremorine | 28 ± 2.9 µM |  | oxotremorine >McN-A-343>compound # 3 | McN-A-343 >compound #3>oxotremorine | 
C[C@H]1O[C@]2(CS1)CN1CCC2CC1 (single isomer, unassigned) [Compound #5, 2-methylspiro(1,3-oxathiolan-5,3')quinuclidine] | 3.7 ± 0.7 | 0.21 ± 0.06 |  |  | 0.2 ± 0.04 |  | 7.9 ± 0.9 µM |  |  |  | 2.2
